In PubChem BioAssay (EPA / NIEHS) one finds outcome and AC50 data, which are given here for four molecules.

Sequences of proteins named here, by UniProt entry; tags and fusion partners are left off. A change or cut given only in a name is not applied to a line headed by its entry.
UniProt Q16665, whole entry, looked up: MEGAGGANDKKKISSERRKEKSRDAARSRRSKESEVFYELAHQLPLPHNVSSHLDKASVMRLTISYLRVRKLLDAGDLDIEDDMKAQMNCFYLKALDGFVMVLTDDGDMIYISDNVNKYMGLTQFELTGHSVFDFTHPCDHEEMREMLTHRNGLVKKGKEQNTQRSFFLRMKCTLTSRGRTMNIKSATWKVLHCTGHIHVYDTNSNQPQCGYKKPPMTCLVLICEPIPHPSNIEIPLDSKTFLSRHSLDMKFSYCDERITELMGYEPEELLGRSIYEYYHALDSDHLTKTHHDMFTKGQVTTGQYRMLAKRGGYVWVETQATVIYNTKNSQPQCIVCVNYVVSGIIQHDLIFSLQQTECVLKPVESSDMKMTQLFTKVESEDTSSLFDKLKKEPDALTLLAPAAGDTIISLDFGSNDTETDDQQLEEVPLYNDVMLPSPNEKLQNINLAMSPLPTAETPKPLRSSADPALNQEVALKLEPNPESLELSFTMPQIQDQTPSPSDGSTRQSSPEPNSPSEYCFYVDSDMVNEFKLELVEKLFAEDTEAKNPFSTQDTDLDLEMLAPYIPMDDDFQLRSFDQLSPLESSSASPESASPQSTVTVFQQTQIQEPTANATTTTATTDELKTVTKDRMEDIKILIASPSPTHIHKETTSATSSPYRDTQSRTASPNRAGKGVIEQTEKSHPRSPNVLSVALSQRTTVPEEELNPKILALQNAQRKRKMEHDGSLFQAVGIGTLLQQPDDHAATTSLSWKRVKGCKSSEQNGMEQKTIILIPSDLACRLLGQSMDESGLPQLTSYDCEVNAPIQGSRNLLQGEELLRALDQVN
UniProt Q00613: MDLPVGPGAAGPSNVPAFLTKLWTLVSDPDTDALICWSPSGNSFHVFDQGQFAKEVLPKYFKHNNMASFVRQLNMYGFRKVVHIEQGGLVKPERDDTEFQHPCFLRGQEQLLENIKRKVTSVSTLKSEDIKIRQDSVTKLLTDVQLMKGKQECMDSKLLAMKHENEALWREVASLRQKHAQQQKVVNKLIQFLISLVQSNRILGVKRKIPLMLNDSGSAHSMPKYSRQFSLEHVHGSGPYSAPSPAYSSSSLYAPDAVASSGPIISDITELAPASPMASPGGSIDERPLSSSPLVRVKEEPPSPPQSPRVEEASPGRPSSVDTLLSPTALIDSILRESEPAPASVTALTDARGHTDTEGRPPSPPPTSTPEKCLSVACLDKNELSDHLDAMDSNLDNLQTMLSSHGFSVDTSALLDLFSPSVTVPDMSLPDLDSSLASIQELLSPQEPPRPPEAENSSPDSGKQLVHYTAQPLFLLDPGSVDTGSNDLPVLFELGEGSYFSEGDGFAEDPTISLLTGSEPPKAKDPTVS
UniProt P26367: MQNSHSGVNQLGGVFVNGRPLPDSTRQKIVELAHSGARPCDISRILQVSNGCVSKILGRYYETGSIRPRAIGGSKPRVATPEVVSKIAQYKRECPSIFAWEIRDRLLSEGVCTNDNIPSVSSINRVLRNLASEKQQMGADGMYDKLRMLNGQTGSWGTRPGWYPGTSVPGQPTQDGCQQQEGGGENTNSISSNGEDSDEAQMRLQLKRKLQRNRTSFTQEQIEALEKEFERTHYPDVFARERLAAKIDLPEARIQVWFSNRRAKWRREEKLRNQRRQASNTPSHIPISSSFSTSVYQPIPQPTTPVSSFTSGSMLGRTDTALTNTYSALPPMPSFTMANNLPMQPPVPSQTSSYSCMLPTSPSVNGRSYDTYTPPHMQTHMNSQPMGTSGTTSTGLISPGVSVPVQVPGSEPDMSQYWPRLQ
UniProt P08047, whole entry, looked up: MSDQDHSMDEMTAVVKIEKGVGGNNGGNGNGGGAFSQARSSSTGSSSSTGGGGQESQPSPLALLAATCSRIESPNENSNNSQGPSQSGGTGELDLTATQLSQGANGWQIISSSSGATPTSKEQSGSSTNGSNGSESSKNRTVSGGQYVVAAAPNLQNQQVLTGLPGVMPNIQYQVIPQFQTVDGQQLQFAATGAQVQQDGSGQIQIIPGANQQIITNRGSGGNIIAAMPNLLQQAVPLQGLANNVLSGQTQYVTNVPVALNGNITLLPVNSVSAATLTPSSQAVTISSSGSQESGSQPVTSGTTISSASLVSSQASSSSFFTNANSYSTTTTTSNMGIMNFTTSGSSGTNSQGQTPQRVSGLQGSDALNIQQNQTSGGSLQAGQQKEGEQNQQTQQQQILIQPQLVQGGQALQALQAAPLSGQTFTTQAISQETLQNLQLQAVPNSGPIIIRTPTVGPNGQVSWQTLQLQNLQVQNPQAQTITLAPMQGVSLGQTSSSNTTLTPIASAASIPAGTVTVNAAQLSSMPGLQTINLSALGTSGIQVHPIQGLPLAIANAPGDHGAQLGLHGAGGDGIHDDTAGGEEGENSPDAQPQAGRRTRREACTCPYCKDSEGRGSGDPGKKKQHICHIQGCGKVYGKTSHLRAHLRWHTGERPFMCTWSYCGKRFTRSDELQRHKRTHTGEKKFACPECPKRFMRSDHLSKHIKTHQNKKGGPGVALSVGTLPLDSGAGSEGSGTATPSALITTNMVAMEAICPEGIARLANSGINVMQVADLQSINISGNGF
UniProt P40763, whole entry, looked up: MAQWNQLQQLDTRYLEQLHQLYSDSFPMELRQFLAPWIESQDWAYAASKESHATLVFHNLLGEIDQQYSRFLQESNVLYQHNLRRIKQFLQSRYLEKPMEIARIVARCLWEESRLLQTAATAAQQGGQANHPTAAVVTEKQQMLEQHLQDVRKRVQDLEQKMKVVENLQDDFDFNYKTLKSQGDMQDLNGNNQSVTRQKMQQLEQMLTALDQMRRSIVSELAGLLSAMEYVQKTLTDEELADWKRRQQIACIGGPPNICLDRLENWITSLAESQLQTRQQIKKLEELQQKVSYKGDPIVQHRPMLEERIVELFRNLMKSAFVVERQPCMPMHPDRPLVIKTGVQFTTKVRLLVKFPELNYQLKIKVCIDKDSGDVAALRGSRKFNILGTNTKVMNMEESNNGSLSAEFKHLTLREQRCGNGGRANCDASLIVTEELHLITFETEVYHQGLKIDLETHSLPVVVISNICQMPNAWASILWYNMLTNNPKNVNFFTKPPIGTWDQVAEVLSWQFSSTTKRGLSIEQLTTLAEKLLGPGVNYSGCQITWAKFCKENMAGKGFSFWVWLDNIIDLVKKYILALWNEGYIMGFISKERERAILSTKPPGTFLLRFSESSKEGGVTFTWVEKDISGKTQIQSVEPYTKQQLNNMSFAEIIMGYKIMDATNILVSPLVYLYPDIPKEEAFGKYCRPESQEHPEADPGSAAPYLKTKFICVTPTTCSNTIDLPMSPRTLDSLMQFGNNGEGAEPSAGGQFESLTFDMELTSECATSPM
UniProt P11474: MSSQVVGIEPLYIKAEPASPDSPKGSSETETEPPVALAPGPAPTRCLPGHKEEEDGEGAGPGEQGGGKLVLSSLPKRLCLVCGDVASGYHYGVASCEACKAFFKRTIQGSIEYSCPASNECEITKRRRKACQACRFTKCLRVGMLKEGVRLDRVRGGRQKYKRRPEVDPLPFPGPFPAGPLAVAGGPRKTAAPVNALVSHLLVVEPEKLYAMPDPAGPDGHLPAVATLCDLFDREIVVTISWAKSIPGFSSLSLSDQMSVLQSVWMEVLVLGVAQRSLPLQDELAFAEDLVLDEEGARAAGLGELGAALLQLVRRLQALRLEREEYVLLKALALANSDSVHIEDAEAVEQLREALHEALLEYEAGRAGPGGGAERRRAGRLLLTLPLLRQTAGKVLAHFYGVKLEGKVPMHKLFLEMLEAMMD
UniProt Q14994: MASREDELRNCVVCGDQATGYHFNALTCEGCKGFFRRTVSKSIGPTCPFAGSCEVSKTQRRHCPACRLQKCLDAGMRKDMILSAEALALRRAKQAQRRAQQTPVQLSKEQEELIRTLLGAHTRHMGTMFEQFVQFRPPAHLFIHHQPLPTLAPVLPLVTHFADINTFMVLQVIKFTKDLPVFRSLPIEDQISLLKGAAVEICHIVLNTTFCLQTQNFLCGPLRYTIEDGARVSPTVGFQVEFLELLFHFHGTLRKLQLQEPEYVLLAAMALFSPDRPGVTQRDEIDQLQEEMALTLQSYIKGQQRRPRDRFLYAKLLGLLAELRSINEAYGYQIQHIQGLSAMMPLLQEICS
UniProt P03372, whole entry, looked up: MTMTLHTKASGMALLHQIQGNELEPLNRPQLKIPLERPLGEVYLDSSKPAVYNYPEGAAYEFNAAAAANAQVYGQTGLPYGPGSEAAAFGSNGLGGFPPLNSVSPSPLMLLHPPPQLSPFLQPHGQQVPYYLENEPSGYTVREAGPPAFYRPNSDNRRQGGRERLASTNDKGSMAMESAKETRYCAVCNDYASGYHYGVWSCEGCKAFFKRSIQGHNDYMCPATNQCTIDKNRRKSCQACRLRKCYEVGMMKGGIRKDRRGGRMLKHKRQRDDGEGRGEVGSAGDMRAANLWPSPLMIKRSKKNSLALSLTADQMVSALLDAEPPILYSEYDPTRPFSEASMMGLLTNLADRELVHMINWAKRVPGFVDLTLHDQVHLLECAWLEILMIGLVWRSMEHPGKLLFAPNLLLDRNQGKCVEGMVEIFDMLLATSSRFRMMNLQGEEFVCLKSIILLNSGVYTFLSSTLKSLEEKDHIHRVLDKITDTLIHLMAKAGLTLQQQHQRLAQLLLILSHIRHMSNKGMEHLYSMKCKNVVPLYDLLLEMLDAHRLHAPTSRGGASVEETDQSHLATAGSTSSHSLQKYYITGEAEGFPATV

Assay [1] is described as follows: ATG_M_32_CIS: Attagene CIS-FACTORIAL HepG2 Assay for M32 Transcription Factor (Internal Marker) (AID 2282949).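 Note: background control marker of the multiplexed CIS panel rather than a real target.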 As to conditions: HepG2 Attagene cis-factorial M32 reporter, mRNA; actives raise or lower the signal. An outline of the steps:
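Fluorescent capillary electrophoresis peaks of HpaI-digested, FAM-labelled RT-PCR reporter products give the signal. Source: transiently transfected human liver HepG2 cells, 24 h after chemical dosing; bidirectional fitting against DMSO.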

Assay [2] is described as follows: ATG_M_06_CIS: Attagene CIS-FACTORIAL HepG2 Assay for M06 Transcription Factor (Internal Marker) (AID 2282950). As to conditions: HepG2 Attagene CIS-FACTORIAL M06 internal marker reporter; actives raise or lower the signal. An outline of the steps:
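HepG2 cells transiently transfected with cis-regulated multiple reporter transcription units were exposed to chemical for 24 h; reporter mRNA was quantified by RT-PCR, 6-FAM primer labelling, HpaI digestion and capillary electrophoresis, fitted bidirectionally against DMSO.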

Assay [3] concerns the target Hypoxia-inducible factor 1-alpha (Homo sapiens) (UniProt Q16665). As to the kind of experiment: ATG_HIF1a_CIS: Attagene CIS-FACTORIAL HepG2 Assay for human Hypoxia Inducible Factor 1 (HIF1A) (AID 2282951). As to conditions: HepG2 Attagene cis-factorial HIF1a reporter transcription; actives raise or lower the signal. In a few lines:
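Transient MRTU transfection of human HepG2 liver cells, 24 h compound treatment, then total RNA isolation, oligo(dT) reverse transcription, PCR amplification, fluorescent labelling and capillary electrophoresis of reporter fragments. Gain or loss relative to DMSO.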

Assay [4] deals with Heat shock factor protein 1 (Homo sapiens) (UniProt Q00613). Put plainly: ATG_HSE_CIS: Attagene CIS-FACTORIAL HepG2 Assay for human Heat Shock Transcription Factor 1 (HSE) (AID 2282953). As to conditions: HepG2 HSE cis-reporter, Attagene RNA transcription; actives raise or lower the signal. In a few lines:
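HepG2 cells transiently transfected with multiple reporter transcription units under cis-regulatory promoter control, measuring endogenous transcription factor activity. After 24 h chemical exposure, reporter mRNA quantified by RT-PCR, fluorescent labelling, HpaI digestion and capillary electrophoresis; bidirectional fit versus DMSO.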

Assay [5] in a line: ATG_MRE_CIS: Attagene CIS-FACTORIAL HepG2 Assay for human Metal Responsive Element (MRE) (AID 2282954). The following applies: HepG2 MRE cis-reporter transcription, Attagene multiplex; actives raise or lower the signal. In a few lines: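 Step one: transfect HepG2 with cis-regulated reporter units. Step two: dose 24 h. Step three: isolate RNA, RT-PCR, 6-FAM label, HpaI digest, capillary electrophoresis. Fit bidirectionally to DMSO.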

Assay [6] addresses Paired box protein Pax-6 (Homo sapiens) (UniProt P26367). Put plainly: ATG_Pax6_CIS: Attagene CIS-FACTORIAL HepG2 Assay for human Paired Box 6 (PAX6) (AID 2282956). The following applies: HepG2 CIS-FACTORIAL PAX6 reporter transcription, RNA readout; actives raise or lower the signal. In a few lines: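 Transient MRTU transfection of HepG2 → compound exposure 24 h → TriZol RNA, oligo(dT) RT → PCR, 6-FAM primer extension, HpaI cut → capillary electrophoresis; activity fitted both directions against DMSO.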

Assay [7] can be described thus: ATG_PXRE_CIS: Attagene CIS-FACTORIAL HepG2 Assay for human Pregnane X Receptor Element (PXRE) (AID 2282957). The following applies: HepG2 Attagene CIS-FACTORIAL PXRE reporter, mRNA; actives raise or lower the signal. An outline of the steps: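 HepG2 cells transiently transfected with cis-regulated multiple reporter transcription units; endogenous factor activity measured as reporter mRNA 24 h after dosing. RT-PCR, fluorescent primer extension, HpaI digestion, capillary electrophoresis; bidirectional fit versus DMSO baseline.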

Assay [8] can be described thus: ATG_PPRE_CIS: Attagene CIS-FACTORIAL HepG2 Assay for human Peroxisome Proliferator-activated Response Element (PPRE) (AID 2282958). As to conditions: HepG2 PPRE cis-element reporter, Attagene transcription factor profiling; actives raise or lower the signal. An outline of the steps: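 HepG2, transient MRTU transfection (cis promoter elements, endogenous TFs). 24 h dosing. RNA → oligo(dT) RT → PCR → 6-FAM primer extension → HpaI digest → CE. Bidirectional fit vs DMSO.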

Assay [9] in a line: ATG_RORE_CIS: Attagene CIS-FACTORIAL HepG2 Assay for human RAR-related Orphan Receptor Element (RORE) (AID 2282959). The following applies: HepG2 Attagene cis-factorial RORE reporter, mRNA; actives raise or lower the signal. An outline of the steps:
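Transient MRTU transfection of human HepG2 liver cells (FuGene 6); 24 h compound exposure; TriZol RNA, oligo(dT) RT, PCR, FAM labeling, HpaI cut, CE fragment analysis. DMSO = negative control/baseline.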

For assay [10], the target named is Transcription factor Sp1 (Homo sapiens) (UniProt P08047). As to the kind of experiment: ATG_Sp1_CIS: Attagene CIS-FACTORIAL HepG2 Assay for human Specificity Protein 1 (Sp1) (AID 2282961). The following applies: HepG2 Sp1 cis-reporter transcription, actives raise or lower the signal. In a few lines: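 Transient MRTU-transfected HepG2, 24 h compound exposure. Total RNA → oligo(dT) RT → PCR of reporter → 6-FAM primer extension → HpaI digest → CE. Endpoint fitted both directions vs DMSO.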

The target in assay [11] is Signal transducer and activator of transcription 3 (Homo sapiens) (UniProt P40763). As to the kind of experiment: ATG_STAT3_CIS: Attagene CIS-FACTORIAL HepG2 Assay for human Signal Transducer and Activator of Transcription 3 (STAT3) (AID 2282963). The following applies: HepG2, Attagene cis-factorial STAT3 reporter transcription; actives raise or lower the signal. An outline of the steps: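 Transcript-level reporter assay. HepG2 transient MRTU transfection, 24 h exposure, fluorescence detection after RT-PCR and CE; DMSO baseline.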

Assay [12] can be described thus: ATG_TA_CIS: Attagene CIS-FACTORIAL HepG2 Assay for human TA Basal Promoter (AID 2282964). As to conditions: HepG2 Attagene CIS-factorial TA basal promoter reporter; actives raise or lower the signal. An outline of the steps: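 HepG2 cells transiently transfected with multiplexed cis-promoter reporter units, dosed 24 h. Reporter mRNA measured by RT-PCR, 6-FAM labelling, HpaI digestion and capillary electrophoresis; bidirectional fit versus DMSO baseline, serving as background control.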

Assay [13] can be described thus: ATG_TCF_b_cat_CIS: Attagene CIS-FACTORIAL HepG2 Assay for human T-Cell-Factor with beta-catenin (TCF/b-cat) (AID 2282965). The following applies: HepG2 TCF/beta-catenin cis-reporter transcription, actives raise or lower the signal. In a few lines: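 Using capillary electrophoresis as the read-out, labelled reporter cDNA fragments from transiently transfected HepG2 were sized and quantified. Exposure lasted 24 hours; activity in either direction was referenced to DMSO.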

Assay [14] is described as follows: ATG_TAL_CIS: Attagene CIS-FACTORIAL HepG2 Assay for human TAL Basal Promoter (AID 2282966).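 Note: background control endpoint measuring basal TAL promoter reporter mRNA not a specific factor.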 As to conditions: HepG2 Attagene cis-factorial TAL promoter reporter; actives raise or lower the signal. In a few lines:
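HepG2 cells were transiently transfected with promoter-driven multiplexed reporter units and dosed for 24 h. Reporter mRNA was measured by RT-PCR with capillary electrophoresis fluorescence; bidirectional fits used DMSO as baseline, serving as a background control.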

Assay [15] is described as follows: ATG_TGFb_CIS: Attagene CIS-FACTORIAL HepG2 Assay for human Transforming Growth Factor (TGF) (AID 2282967). The following applies: HepG2 Attagene CIS TGFb reporter, mRNA transcription; actives raise or lower the signal. In a few lines:
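HepG2 cells transiently transfected with cis-promoter-driven multiplexed reporter units; 24 h compound exposure. Reporter mRNA measured by RT-PCR, 6-FAM labeling, HpaI digestion and capillary electrophoresis; bidirectional fit versus DMSO baseline.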

Assay [16] can be described thus: ATG_VDRE_CIS: Attagene CIS-FACTORIAL HepG2 Assay for human Vitamin D Receptor Element (VDRE) (AID 2282968). The following applies: HepG2 VDRE cis-reporter transcription, actives raise or lower the signal. An outline of the steps:
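RT-PCR/CE readout of reporter mRNA; HepG2, transient transfection, 24 h dosing; DMSO baseline; bidirectional analysis.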

Assay [17] addresses Steroid hormone receptor ERR1 (Homo sapiens) (UniProt P11474). As to the kind of experiment: ATG_ERRa_TRANS: Attagene TRANS-FACTORIAL HepG2 Assay for human Estrogen-Related Receptor alpha (ERRa) (AID 2282971; active = hit-call score of the fitted dose curve at least 0.9, where 1 is the maximum). The following applies: HepG2 Attagene TRANS reporter, ERRa transactivation. An outline of the steps:
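HepG2 cells transiently transfected with multiplexed GAL4-UAS reporter units reading chimeric ERRa-Gal4 activity; 24 h compound exposure. Reporter mRNA measured by RT-PCR, 6-FAM labelling, HpaI digest and capillary electrophoresis; gain of signal fitted versus DMSO baseline.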

Assay [18] can be described thus: ATG_PBREM_CIS: Attagene CIS-FACTORIAL HepG2 Assay for human Phenobarbital-responsive Enhancer Module (PBREM) (AID 2282955). As to conditions: HepG2 PBREM cis-reporter, Attagene multiplexed transcription; actives raise or lower the signal. In a few lines:
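Endogenous transcription factors in human liver HepG2 cells drive a PBREM cis-element reporter, whose transcript level after 24 h treatment is quantified by RT-PCR with capillary electrophoresis; activity fitted in both directions against DMSO.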

The target of assay [19] is Nuclear receptor subfamily 1 group I member 3 (Homo sapiens) (UniProt Q14994). Put plainly: ATG_CAR_TRANS: Attagene TRANS-FACTORIAL HepG2 Assay for human Constitutive Androstane Receptor (CAR) (AID 2282969; active = hit-call score of the fitted dose curve at least 0.9, where 1 is the maximum;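 note: activators raise reporter mRNA above DMSO so AC50 marks induction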). The following applies: HepG2 Attagene TRANS-FACTORIAL CAR reporter. An outline of the steps:
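HepG2 cells transiently transfected with multiplexed GAL4-UAS reporter units expressing chimeric NR-Gal4 proteins; compound exposure 24 h. Reporter mRNA measured by RT-PCR, 6-FAM labelling, HpaI digestion and capillary electrophoresis; gain-of-signal fitted against DMSO baseline.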

The target of assay [20] is Estrogen receptor (Homo sapiens) (UniProt P03372). As to the kind of experiment: ATG_ERa_TRANS: Attagene TRANS-FACTORIAL HepG2 Assay for human Estrogen Receptor alpha (ERa) (AID 2282970; active = hit-call score of the fitted dose curve at least 0.9, where 1 is the maximum). As to conditions: HepG2 Attagene TRANS ERa GAL4 reporter, mRNA. An outline of the steps:
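HepG2 cells transiently transfected with multiplexed GAL4-UAS reporter units; ERa activity read via exogenous chimeric NR-Gal4 protein. After 24 hour compound exposure, reporter mRNA measured by RT-PCR with 6-FAM labelling and capillary electrophoresis; gain-of-signal fitted relative to DMSO.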

Molecules are shown by their SMILES. The entries are a selection whose mix differs from that of the whole data set. Inconclusive results are not listed. Active and inactive are the calls of the source. Rule for the calls, unless noted: active = hit-call score of the fitted dose curve at least 0.9, where 1 is the maximum; inactive = score below 0.9.

On to `O=C(Cl)OCCOC(=O)Cl`, for which the result in [1], in assay [2], in assay [3], in [4], in [5] and in assay [6] was inactive. Besides, the molecule was called inactive in assay [7], in assay [8], in assay [9], in [10], in [11] and in assay [12]. For the same molecule, the molecule was called inactive in assay [13], in [14], in [15], in assay [16] and in assay [17].
A word on the AC50: it is the concentration at which the activity in the assay is half-maximal. As for `CCCCC(CC)CO[P+](=O)OCC(CC)CCCC` (configuration not stated), the molecule was called inactive in assay [1], in assay [2], in [3], in assay [4], in assay [5] and in assay [18]. Moreover, the molecule was classed as inactive in [6], in assay [8], in [9], in [10], in [11] and in assay [12]. The molecule was classed as inactive in assay [13], in assay [14], in assay [15], in [19] and in assay [20]. Also, the AC50 in assay [7] was active: 18.5 µM; in [16], active: 27.8 µM.
As for `O=[P+](Oc1ccccc1)Oc1ccccc1`, the call in assay [1], in [2], in assay [3], in [4], in [5] and in assay [18] was inactive. Also, the result in [6], in [7], in [8], in assay [9], in [10] and in assay [11] was inactive. The call in [12], in [13], in [14], in assay [15], in assay [16] and in assay [19] was inactive. Besides, in assay [20], the molecule was classed as inactive.
For `CN(C(=O)Cc1cccc2occc12)[C@H]1CC[C@@]2(CCCO2)C[C@@H]1N1CCCC1`, the outcome in [1], in [2], in assay [3], in [4], in assay [5] and in assay [18] was inactive. In addition, the result in assay [6], in assay [10], in assay [11], in assay [12], in assay [13] and in assay [14] was inactive. Moreover, the outcome in assay [15], in [16], in [19] and in assay [20] was inactive. Moreover, the AC50 in [7] was active: 16.8 µM.
